Literature values as cited in patent US20220235421A1, “DETECTING AND TREATING CISPLATIN SENSITIVE CANCER” (The Cleveland Clinic Foundation, priority 2021, published 2022).

Test system: ALK-mutated tumors, non-small cell lung cancer
Details: Phase 3 trial; cited from earlier work

In the case of C[C@@H](Oc1cc(-c2cnn(C3CCNCC3)c2)cnc1N)c1c(Cl)ccc(F)c1Cl [Crizotinib], the “progression-free survival (PFS)” value is given as 10.7 month.
